B1: ACC deaminase: 1-aminocyclopropane-1-carboxylate deaminase polypeptide with two substitutions relative to wild type (protein, listed as Bacillus thuringiensis)
chain: MNLAKFPRKKYTESYTPIEKLNNFSEALGGPTIYFKRDDLLGLTAGGNKTRKLEFLVADAQEKGADTLITAGGIQSNHCRLTLAAAVKEKMKCILVLEEGLEPEEKRDFNGNYFLYHLLGAENVIVVPNGADLMEEMNKVAKEVSEKGSTPYVIPVGGSNPTGAMGYVACAQEIMAQSFEQGIDFSSVVCVSGSGGMHAGLITGFSGTQSHIPVIGINVSRGKAEQEEKVAKLVDETSAHVGIPNFISRDAVTCFDEYVGPGYALPTPEMVEAVQLLAKTEGILLDPVYEGKAVAGLIDLIRKGKFNKEDNILFVHLGGSPALYANTSLFA
B2: ACC Deaminase (SEQ ID NO: 730) (Composition 3) (protein, listed as Bacillus thuringiensis)
chain: B1 chain

System: corn plants (hybrids DKC 60-88 RIB, DKC 58-08 RIB and DKC 64-35 RIB)

Molecule | average yield increase over control (foliar V4-V7, 12 locations) | Average Bu/Ac Increase compared to Control (foliar spray V4-V7, 12 locations, vs surfactant control) | Average Total Yield Bu/Ac (12 locations) (foliar spray V4-V7, Bt.4Q7Flg22 4.0 Fl. oz/Ac, ACC Deaminase 8.0 Fl. oz/Ac, surfactant control = 225.51) [Bu/Ac]
B1 | +1.06 Bu/Ac |  | 
B2 |  | +1.06 Bu/Ac | 226.57
